Results taken from patent publication US20140378382A1 (WISCONSIN ALUMNI RESEARCH FOUNDATION, published 2014).

Molecular target: T1, PTHR-1 (species and cells not stated for the assay) (Homo sapiens (Human), UniProt Q03431 27-593)
T1 sequence: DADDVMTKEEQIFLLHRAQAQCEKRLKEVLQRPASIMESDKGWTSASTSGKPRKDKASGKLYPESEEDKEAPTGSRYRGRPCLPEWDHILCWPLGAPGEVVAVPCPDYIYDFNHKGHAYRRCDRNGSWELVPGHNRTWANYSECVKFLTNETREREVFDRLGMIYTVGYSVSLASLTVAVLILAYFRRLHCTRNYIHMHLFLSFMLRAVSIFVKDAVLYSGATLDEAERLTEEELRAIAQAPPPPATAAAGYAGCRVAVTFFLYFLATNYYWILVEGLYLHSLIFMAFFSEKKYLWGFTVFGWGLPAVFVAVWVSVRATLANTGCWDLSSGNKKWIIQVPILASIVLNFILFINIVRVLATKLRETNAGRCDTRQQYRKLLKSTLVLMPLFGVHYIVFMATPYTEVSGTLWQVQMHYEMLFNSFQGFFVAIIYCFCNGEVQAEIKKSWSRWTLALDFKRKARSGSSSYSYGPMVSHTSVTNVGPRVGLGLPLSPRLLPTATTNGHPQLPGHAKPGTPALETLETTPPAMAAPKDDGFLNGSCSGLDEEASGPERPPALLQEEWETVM
Test: cell-based or functional assay

EC50 of PTH(1-34) signaling with 1 µM inhibitor: 2.6 nM
B1: D6 bPTH(7-34) dTrp12 (peptide)
peptide: FMHNLWKWLSSMERVEWLRKKLQDVHNF
modifications: D-Trp at position 12 (PTH numbering); β3 marks lost (D6 pattern 14, 18, 22, 26, 30, 34; W printed at 14); C-terminal amide
